# Test results published in PubChem BioAssay AID485360 (National Center for Advancing Translational Sciences (NCATS), 2010).
# Chains of the proteins cited; added tags and fusions are not shown. Lines headed by an entry give the natural chain unless they say otherwise; changes in a name come on top.
# UniProt Q9Y468: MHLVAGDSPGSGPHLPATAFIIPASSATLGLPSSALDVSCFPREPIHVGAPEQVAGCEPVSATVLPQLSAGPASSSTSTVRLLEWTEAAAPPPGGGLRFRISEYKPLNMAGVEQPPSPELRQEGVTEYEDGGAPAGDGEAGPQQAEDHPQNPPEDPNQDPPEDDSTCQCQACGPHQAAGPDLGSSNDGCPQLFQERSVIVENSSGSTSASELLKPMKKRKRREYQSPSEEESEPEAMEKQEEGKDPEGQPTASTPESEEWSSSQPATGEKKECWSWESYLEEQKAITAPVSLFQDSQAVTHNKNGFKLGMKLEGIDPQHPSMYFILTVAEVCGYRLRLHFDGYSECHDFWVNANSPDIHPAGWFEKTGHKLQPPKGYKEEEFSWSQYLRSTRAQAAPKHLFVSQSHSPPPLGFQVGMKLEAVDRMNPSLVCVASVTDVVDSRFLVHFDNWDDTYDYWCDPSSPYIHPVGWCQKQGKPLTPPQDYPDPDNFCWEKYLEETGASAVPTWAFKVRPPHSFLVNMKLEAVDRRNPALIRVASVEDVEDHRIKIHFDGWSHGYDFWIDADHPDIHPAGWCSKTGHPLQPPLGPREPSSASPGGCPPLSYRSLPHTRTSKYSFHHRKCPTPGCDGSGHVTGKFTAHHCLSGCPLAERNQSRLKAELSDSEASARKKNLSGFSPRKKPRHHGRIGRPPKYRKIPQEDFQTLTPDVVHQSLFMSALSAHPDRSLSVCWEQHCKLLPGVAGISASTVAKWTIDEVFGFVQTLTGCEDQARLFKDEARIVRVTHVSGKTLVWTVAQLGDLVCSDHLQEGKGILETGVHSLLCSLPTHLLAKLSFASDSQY
# The list shows a part of the results, in another mix than the full data. Inconclusive results are not listed. Active and inactive are the calls of the source. Calls come from the whole dose curve; as a rule, active = well fitted inhibition curve with a large enough effect; inconclusive = small, poorly fitted or top-dose-only effect; inactive = no such curve, though single readings can be large or run the other way.
# Molecular target: Lethal(3)malignant brain tumor-like protein 1 (Homo sapiens) (UniProt Q9Y468)
# Experiment: qHTS Assay for the Inhibitors of L3MBTL1; note: nearly all actives have a fitted effect of over 60% in size
# Conditions: AlphaScreen L3MBTL1–H3K9me1 peptide binding
# Source text: The histone code is comprised of many post-translational modifications that occur mainly in histone tail peptides. The identity and location of these marks are read by a variety of histone binding proteins that are emerging as important regulators of cellular differentiation and development and are increasingly being implicated in numerous disease states. Small molecule probes that disrupt the interaction between histone binding proteins and chromatin would enable a systematic chemical biology study of proteins that read the histone code and could potentially reveal new targets for drug discovery. However, no such small molecules are known. This dearth of quality molecular probes can largely be attributed to the novelty of the target class and the lack of screening assays. This proposal details the development of the first high-throughput screening assay for the discovery of inhibitors of methyl-lysine binding proteins and how it can be be used to initiate a full-scale discovery effort for antagonists of histone binding proteins. […]
# To each well, 2 uL of L3MBTL1 protein (final 50 nM) and 1 uL biotinylated histone peptide monomethylated at Lys9 [b-AHA-H3(1-15)K9me1] […] Microplates were then be read on an EnVision multilabel plate reader using the 1,536 plate HTS AlphaScreen aperture (excitation time 80 ms, measurement time 240 ms).
# Potency is the fitted concentration of half-maximal effect.
row,Compound,Potency
1,CC(CCC(C)C(C)(C)C)[C@@H]1CC[C@H]2C3C[C@H](OS(O)(=S)=S)[C@H]4C[C@H](OS(O)(=S)=S)[C@@H](OS(O)(=S)=S)C[C@]4(C)[C@H]3CC[C@]12C (stereo partly specified) (tested in a mixture with another compound),active: 31.6 µM
